Values quoted from earlier work in article PMC7854685, “Histone Parylation factor 1 contributes to the inhibition of PARP1 by cancer drugs” (Nature Communications, 2021).

The chains behind the UniProt entries cited, without tags or fusion partners.
UniProt P09874, whole entry: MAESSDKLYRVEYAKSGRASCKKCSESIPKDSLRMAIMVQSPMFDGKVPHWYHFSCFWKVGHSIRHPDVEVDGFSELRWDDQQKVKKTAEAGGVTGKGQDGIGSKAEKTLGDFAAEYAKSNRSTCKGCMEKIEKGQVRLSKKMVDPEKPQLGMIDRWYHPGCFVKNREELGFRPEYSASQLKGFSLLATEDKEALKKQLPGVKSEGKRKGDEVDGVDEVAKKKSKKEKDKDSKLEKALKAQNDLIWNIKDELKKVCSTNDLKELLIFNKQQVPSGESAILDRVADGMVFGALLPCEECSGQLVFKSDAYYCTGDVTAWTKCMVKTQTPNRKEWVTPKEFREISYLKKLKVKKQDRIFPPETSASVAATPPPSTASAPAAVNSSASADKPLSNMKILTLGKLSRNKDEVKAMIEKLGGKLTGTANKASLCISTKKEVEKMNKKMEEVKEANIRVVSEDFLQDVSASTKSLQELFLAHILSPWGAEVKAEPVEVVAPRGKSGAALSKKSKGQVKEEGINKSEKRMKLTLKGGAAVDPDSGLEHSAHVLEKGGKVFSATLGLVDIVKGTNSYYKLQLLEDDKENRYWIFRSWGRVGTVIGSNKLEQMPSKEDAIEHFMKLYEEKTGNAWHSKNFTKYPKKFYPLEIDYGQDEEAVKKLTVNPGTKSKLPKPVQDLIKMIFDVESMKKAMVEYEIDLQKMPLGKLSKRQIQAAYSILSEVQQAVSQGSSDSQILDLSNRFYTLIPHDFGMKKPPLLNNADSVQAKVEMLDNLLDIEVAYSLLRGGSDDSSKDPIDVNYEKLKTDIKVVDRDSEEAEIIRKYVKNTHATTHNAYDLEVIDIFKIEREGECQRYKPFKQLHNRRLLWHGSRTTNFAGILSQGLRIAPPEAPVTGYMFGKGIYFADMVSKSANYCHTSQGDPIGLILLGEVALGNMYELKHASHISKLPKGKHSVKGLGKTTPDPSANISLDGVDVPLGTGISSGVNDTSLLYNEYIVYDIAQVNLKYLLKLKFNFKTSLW

Target: PARP1 (Homo sapiens, UniProt P09874)
Settings: cited from earlier work

Cn1ncnc1[C@H]1c2n[nH]c(=O)c3cc(F)cc(c23)N[C@@H]1c1ccc(F)cc1 [Talazoparib]
PARP-trapping: strong
